Sequences of proteins named here, by UniProt entry; tags and fusion partners are left off.
UniProt P31424, whole entry: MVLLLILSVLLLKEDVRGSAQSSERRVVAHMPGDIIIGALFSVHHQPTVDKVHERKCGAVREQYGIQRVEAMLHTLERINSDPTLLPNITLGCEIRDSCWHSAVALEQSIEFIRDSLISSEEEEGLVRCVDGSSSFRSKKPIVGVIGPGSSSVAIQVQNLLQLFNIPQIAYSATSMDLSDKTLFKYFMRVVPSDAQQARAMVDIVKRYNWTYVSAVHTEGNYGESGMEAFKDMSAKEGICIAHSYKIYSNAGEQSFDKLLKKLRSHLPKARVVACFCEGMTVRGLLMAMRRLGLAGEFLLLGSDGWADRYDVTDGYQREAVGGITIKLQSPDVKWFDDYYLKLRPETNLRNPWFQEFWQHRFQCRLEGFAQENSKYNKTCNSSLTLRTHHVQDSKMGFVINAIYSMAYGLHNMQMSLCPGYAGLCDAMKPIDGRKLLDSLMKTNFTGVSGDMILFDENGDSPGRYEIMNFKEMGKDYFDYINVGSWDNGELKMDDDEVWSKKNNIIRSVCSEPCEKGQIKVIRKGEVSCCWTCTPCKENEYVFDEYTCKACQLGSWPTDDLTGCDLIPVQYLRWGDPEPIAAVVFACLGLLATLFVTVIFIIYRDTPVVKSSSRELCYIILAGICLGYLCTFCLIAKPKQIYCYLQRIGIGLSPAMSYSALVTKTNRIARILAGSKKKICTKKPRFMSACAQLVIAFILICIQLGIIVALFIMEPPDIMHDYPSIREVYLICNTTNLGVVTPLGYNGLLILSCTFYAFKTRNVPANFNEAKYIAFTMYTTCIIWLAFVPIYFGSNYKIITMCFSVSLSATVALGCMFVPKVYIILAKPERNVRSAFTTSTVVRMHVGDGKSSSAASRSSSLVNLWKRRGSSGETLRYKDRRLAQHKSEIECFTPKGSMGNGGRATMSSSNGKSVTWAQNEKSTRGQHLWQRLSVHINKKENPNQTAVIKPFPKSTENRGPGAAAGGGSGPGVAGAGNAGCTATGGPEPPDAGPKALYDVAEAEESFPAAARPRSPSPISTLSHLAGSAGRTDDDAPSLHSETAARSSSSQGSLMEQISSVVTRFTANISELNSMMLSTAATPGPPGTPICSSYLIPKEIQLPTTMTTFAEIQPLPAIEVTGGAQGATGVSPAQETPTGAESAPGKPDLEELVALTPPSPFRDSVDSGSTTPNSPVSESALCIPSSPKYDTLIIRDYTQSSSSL

In ChEMBL document CHEMBL1781909, “Potent mGluR5 antagonists: pyridyl and thiazolyl-ethynyl-3,5-disubstituted-phenyl series” (Bioorg Med Chem Lett, 2011):

Legend:
[1] = biological target: T1, Metabotropic glutamate receptor 5 (Rattus norvegicus, UniProt P31424); experiment: Displacement of [3H]methoxy-PEPY from rat mGluR5 expressed in human HEK-293 cells by liquid scintillation counting; format: cell-based, HEK293
How it was run: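 Membranes from stable rat mGluR5-HEK293A cells (10 µg/well) incubated with 2 nM [3H]methoxy-PEPY in 50 mM Tris/0.9% NaCl, pH 7.4, with or without compound, 1 h at room temperature with shaking. Filtered on GF/B, washed three times, counted by liquid scintillation. Nonspecific binding defined with 5 µM MPEP. Ki derived from fitted IC50; three experiments in duplicate.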

[2] = biological target: T1, Metabotropic glutamate receptor 5; experiment: Antagonist activity at rat mGluR5 expressed in human HEK-293 cells assessed as inhibition of glutamate-induced intracellular calcium mobilization; format: functional, cell-based, HEK293

Structure (SMILES): N#Cc1cc(F)cc(C#Cc2ccccn2)c1
- Ki [1]: 0.2 nM
- IC50 [2]: 0.66 nM

Structure (SMILES): Cc1nc(C#Cc2cccnc2)cs1
- IC50 [2]: 5 nM

Structure (SMILES): Cc1cccc(C#Cc2ccccc2)n1
- Ki [1]: 18.7 nM
- IC50 [2]: 2.93 nM
